Antibody variant affinities, Ab-91 heavy chain, assay 2

Binding partner: SARS-CoV-2 spike HR2 peptide, sequence PDVDLGDISGINAS.

The variants keep the light chain, the linker and the frameworks of Ab-91 (scFv order VL, a 15-residue (Gly4Ser)3 linker, VH).
VL: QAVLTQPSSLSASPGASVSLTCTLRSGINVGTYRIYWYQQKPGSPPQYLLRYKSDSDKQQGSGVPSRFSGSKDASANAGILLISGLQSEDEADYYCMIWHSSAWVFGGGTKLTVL
VH: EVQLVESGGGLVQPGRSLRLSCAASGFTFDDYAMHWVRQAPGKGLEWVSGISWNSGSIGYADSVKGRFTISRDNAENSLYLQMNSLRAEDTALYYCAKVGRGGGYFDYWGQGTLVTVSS

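Variants in AAYL51 differ from the parent at up to three CDR positions; double and triple changes were sampled at random. AlphaSeq pools MATa yeast showing the antibodies with MATalpha yeast showing the peptide. Pairs that bind mate more often; barcode pairs of the diploids are counted by sequencing. A regression on co-assayed BCL2-family reference pairs converts the normalised counts of each replicate to an apparent Kd. Each pool was mated in three replicate cultures.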

Each variant's VH is given in full. Values are apparent Kd, the geometric mean of the replicates that gave a signal; lower means stronger binding. Where no diploid with the target was found in any replicate, the entry reads "nd": below detection, most likely a poor binder, though not proof of it. In this assay the parent's reference entry averaged 72 nM; its copy inside this library read 7.5 nM. Empty control strains, which show no peptide, gave a signal in 21% of pairings with library AAYL51; the median was 34 µM and 95% of these signals were weaker than 1.8 µM. No background was subtracted.

| Kd | seen in | VH |
|---|---|---|
| nd | 0/3 | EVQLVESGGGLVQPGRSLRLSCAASGFTFDSYAMHWVRQAPGKGLEWVSGISWSSGSSGYADSVKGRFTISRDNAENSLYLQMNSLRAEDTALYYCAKVGRGGGYFDYWGQGTLVTVSS |
| nd | 0/3 | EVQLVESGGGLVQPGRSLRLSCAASGFTFDDYAMHWVRQAPGKGLEWVSGIWWNSGSIGYADSVVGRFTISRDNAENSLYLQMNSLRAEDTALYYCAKVGRGTGYFDYWGQGTLVTVSS |
| 77 µM | 2/3 | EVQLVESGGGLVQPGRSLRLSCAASGFTFDDYAMEWVRQAPGKGLEWVSGISWNSGSIGYGDSVKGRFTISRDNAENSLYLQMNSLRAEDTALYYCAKVGRGGGYVDYWGQGTLVTVSS |
| 940 nM | 3/3 | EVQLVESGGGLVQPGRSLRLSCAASGFMFDDYAMHWVRQAPGKGLEWVSGISWNSGSIGYAVSVKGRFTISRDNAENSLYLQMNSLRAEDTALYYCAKVGRGGGYFDYWGQGTLVTVSS |
| 29 µM | 2/3 | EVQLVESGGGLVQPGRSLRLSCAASGFTADDYAMHWVRQAPGKGLEWVSGISWNSGKIGYADSVKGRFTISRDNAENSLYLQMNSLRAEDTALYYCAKVWRGGGYFDYWGQGTLVTVSS |
| 90 nM | 3/3 | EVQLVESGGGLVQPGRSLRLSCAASGFTFDDYAMHWVRQAPGKGLEWVSGISWNSGHIGYADSVGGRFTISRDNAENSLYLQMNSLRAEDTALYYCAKVGRGGGYFDYWGQGTLVTVSS |
| 74 µM | 2/3 | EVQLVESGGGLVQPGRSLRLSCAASGFTFDDYAGHWVRQAPGKGLEWVSGISWNSGSIGYADWVKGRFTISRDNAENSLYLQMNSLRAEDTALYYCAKVGRGDGYFDYWGQGTLVTVSS |
| 2.4 mM | 1/3 | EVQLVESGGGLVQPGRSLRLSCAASGFTFDDYAMHWVRQAPGKGLEWVSGIAWNDGSIGYADSVKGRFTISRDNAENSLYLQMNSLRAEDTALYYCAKVGRGGMYFDYWGQGTLVTVSS |
| 6.4 µM | 3/3 | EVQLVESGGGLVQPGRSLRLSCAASGFTFTWYAMHWVRQAPGKGLEWVSGISWNSGSIGYADSVKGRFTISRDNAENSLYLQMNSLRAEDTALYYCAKVGRGGGYFEYWGQGTLVTVSS |
| nd | 0/3 | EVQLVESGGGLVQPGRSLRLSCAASGFTFDDYAMHWVRQAPGKGLEWVSGIYWNSGSIGNADSVKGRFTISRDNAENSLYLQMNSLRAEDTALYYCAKVGRIGGYFDYWGQGTLVTVSS |
| nd | 0/3 | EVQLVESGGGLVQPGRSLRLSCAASGFTFDDYAMHWVRQAPGKGLEWVSGISWNSGSIGYAQSVKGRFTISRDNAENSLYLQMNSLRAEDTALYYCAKVGRRGGYVDYWGQGTLVTVSS |
| 44 µM | 3/3 | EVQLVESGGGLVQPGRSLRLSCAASGFTFDDYAMHWVRQAPGKGLEWVSGISFNSGSIGYADSVKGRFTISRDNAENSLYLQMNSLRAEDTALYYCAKVGHGGGPFDYWGQGTLVTVSS |
| 30 µM | 2/3 | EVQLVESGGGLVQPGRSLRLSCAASGFTFDDYAMHWVRQAPGKGLEWVSGIIWNYGSIGLADSVKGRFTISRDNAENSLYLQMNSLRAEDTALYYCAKVGRGGGYFDYWGQGTLVTVSS |
| nd | 0/3 | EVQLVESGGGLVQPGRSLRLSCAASGFTFDDRAMHWVRQAPGKGLEWVSGISWNSGSIGYADHVKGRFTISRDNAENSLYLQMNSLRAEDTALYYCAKYGRGGGYFDYWGQGTLVTVSS |
| 350 nM | 3/3 | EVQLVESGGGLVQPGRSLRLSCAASGFLFDDTAMHWVRQAPGKGLEWVSGISWNSGSIGYADSVKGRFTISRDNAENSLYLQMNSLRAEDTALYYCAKVGRGGGYFDMWGQGTLVTVSS |

The opening 2 entries, copied out:

| VH | Kd | seen in |
|---|---|---|
| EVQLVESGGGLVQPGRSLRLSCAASGFTFDSYAMHWVRQAPGKGLEWVSGISWSSGSSGYADSVKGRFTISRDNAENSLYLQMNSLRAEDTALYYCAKVGRGGGYFDYWGQGTLVTVSS | nd | 0/3 |
| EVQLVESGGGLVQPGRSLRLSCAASGFTFDDYAMHWVRQAPGKGLEWVSGIWWNSGSIGYADSVVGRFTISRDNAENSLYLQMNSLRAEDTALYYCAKVGRGTGYFDYWGQGTLVTVSS | nd | 0/3 |

Reference: Engelhart et al. 2022, doi:10.1038/s41597-022-01779-4. File: FLAb, binding data.